Laboratory results from ChEMBL document CHEMBL4406836, “The design of a cell-selective fowlicidin-1-derived peptide with both antimicrobial and anti-inflammatory activities” (Eur J Med Chem, 2019).

What was measured:
Staphylococcus aureus [1] = assay: Antibacterial activity against methicillin-resistant Staphylococcus aureus CCARM 3089 assessed as reduction in bacterial growth incubated for 18 hrs by spectrophotometry based microtiter broth dilution method; format: functional; details: CCARM 3089, 18 h
[2] = system: Staphylococcus epidermidis; assay: Antibacterial activity against Staphylococcus epidermidis KCTC 1917 assessed as reduction in bacterial growth incubated for 18 hrs by spectrophotometry based microtiter broth dilution method; format: functional; details: KCTC 1917, 18 h
Staphylococcus aureus [3] = assay: Antibacterial activity against methicillin-resistant Staphylococcus aureus CCARM 3095 assessed as reduction in bacterial growth incubated for 18 hrs by spectrophotometry based microtiter broth dilution method; format: functional; details: CCARM 3095, 18 h
Pseudomonas aeruginosa [4] = assay: Antibacterial activity against Pseudomonas aeruginosa KCTC 1637 assessed as reduction in bacterial growth incubated for 18 hrs by spectrophotometry based microtiter broth dilution method; format: functional; details: KCTC 1637, 18 h
Escherichia coli = assay: Antibacterial activity against Escherichia coli KCTC 1682 assessed as reduction in bacterial growth incubated for 18 hrs by spectrophotometry based microtiter broth dilution method; format: functional; details: KCTC 1682, 18 h
Bacillus subtilis = assay: Antibacterial activity against Bacillus subtilis KCTC 3068 assessed as reduction in bacterial growth incubated for 18 hrs by spectrophotometry based microtiter broth dilution method; format: functional; details: KCTC 3068, 18 h
Pseudomonas aeruginosa [5] = assay: Antibacterial activity against multidrug-resistant Pseudomonas aeruginosa CCARM 2095 assessed as reduction in bacterial growth incubated for 18 hrs by spectrophotometry based microtiter broth dilution method; format: functional; details: CCARM 2095, 18 h
Salmonella typhimurium = assay: Antibacterial activity against Salmonella typhimurium KCTC 1926 assessed as reduction in bacterial growth incubated for 18 hrs by spectrophotometry based microtiter broth dilution method; format: functional, Salmonella enterica subsp. enterica serovar Typhimurium; details: Salmonella enterica, KCTC 1926, 18 h
Staphylococcus aureus [6] = assay: Antibacterial activity against Staphylococcus aureus KCTC 1621 assessed as reduction in bacterial growth incubated for 18 hrs by spectrophotometry based microtiter broth dilution method; format: functional; details: KCTC 1621, 18 h
Pseudomonas aeruginosa [7] = assay: Antibacterial activity against multidrug-resistant Pseudomonas aeruginosa CCARM 2109 assessed as reduction in bacterial growth incubated for 18 hrs by spectrophotometry based microtiter broth dilution method; format: functional; details: CCARM 2109, 18 h
Staphylococcus aureus [8] = assay: Antibacterial activity against methicillin-resistant Staphylococcus aureus CCARM 3090 assessed as reduction in bacterial growth incubated for 18 hrs by spectrophotometry based microtiter broth dilution method; format: functional; details: CCARM 3090, 18 h

SMILES: CC[C@H](C)[C@H](NC(=O)CN)C(=O)NCC(=O)N[C@@H](C)C(=O)N[C@H](C(=O)N[C@@H](CC(C)C)C(=O)N[C@@H](CCCCN)C(=O)N[C@H](C(=O)N[C@@H](CC(C)C)C(=O)N[C@H](C(=O)N[C@H](C(=O)NCC(=O)N[C@@H](CC(C)C)C(=O)N1CCC[C@H]1C(=O)N[C@@H](C)C(=O)N[C@@H](CC(C)C)C(=O)N[C@H](C(=O)N[C@@H](CO)C(=O)N[C@@H](Cc1c[nH]c2ccccc12)C(=O)N[C@H](C(=O)N[C@@H](CCCCN)C(=O)N[C@@H](CCCNC(=N)N)C(=O)N[C@@H](CCCCN)C(=O)N[C@@H](CCCNC(=N)N)C(=O)N[C@@H](CCC(N)=O)C(=O)N[C@@H](CCC(N)=O)C(N)=O)[C@@H](C)CC)[C@@H](C)CC)[C@@H](C)O)[C@@H](C)O)C(C)C)C(C)C [MELITTIN]
- MIC (Staphylococcus aureus [1]): 4 µM (≈ 11.4 µg/mL)
- MIC [2]: 4 µM (≈ 11.4 µg/mL)
- MIC (Staphylococcus aureus [3]): 4 µM (≈ 11.4 µg/mL)
- MIC (Pseudomonas aeruginosa [4]): 2 µM (≈ 5.69 µg/mL)
- MIC (Escherichia coli): 4 µM (≈ 11.4 µg/mL)
- MIC (Bacillus subtilis): 1 µM (≈ 2.85 µg/mL)
- MIC (Pseudomonas aeruginosa [5]): 8 µM (≈ 22.8 µg/mL)
- MIC (Salmonella typhimurium): 2 µM (≈ 5.69 µg/mL)
- MIC (Staphylococcus aureus [6]): 2 µM (≈ 5.69 µg/mL)
- MIC (Pseudomonas aeruginosa [7]): 8 µM (≈ 22.8 µg/mL)
- MIC (Staphylococcus aureus [8]): 16 µM (≈ 45.5 µg/mL)

In brackets after ≈: the same amount, converted by molar mass.
